Each structure is given as a SMILES string.

The chains behind the UniProt entries cited, without tags or fusion partners.
UniProt P21554, whole entry: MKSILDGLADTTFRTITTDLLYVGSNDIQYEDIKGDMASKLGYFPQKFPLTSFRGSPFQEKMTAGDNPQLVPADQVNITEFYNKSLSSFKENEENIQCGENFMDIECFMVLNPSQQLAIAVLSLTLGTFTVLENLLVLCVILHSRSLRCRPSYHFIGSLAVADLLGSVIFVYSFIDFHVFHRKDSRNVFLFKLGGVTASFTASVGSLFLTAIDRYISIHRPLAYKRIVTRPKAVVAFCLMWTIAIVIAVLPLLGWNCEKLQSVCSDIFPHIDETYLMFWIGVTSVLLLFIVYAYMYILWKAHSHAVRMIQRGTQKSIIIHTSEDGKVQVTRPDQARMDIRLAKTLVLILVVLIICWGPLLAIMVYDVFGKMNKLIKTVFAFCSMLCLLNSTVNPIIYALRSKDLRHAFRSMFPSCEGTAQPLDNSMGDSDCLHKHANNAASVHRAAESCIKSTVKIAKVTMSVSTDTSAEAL

For the experiment, the target named is Cannabinoid receptor 1 (Homo sapiens, UniProt P21554). The experiment in a line: biochemical. It is filed as cell-based, HEK293.

Turning to `Cc1ccc(Cn2nc(C(=O)N[C@@H]3C(C)(C)[C@@H]4CC[C@@]3(C)C4)cc2-c2ccc(Cl)c(C)c2)cc1` [SR-144528], the Ki was above 2.82 µM.

One may read the Ki as a dissociation constant, usually derived from enzyme kinetics or from competition with a known ligand.

The values are drawn from ChEMBL document CHEMBL1811785, “Investigations on the 4-quinolone-3-carboxylic acid motif. 4. Identification of new potent and selective ligands for the cannabinoid type 2 receptor with diverse substitution patterns and antihyperalgesic effects in mice” (J Med Chem, 2011).
